Measurements from ChEMBL document CHEMBL5550116, “Discovery of novel macrocyclic derivatives as potent and selective cyclin-dependent kinase 2 inhibitors” (Bioorg Med Chem, 2024).

Tests used:
Homo sapiens [1] = species on record: Homo sapiens; experiment: Selectivity ratio of Ki for human CDK9/CyclinT1 to Ki for human CDK2/Cyclin E1
Homo sapiens [2] = species on record: Homo sapiens; experiment: Selectivity ratio of Ki for human CDK5/p25 to Ki for human CDK2/Cyclin E1
Homo sapiens [3] = species on record: Homo sapiens; experiment: Selectivity ratio of Ki for human CDK7/Cyclin H/MAT1 to Ki for human CDK2/Cyclin E1

Compound | Ratio Ki (Homo sapiens [1]) | Ratio Ki (Homo sapiens [2]) | Ratio Ki (Homo sapiens [3])
CC(C)c1cnn2c3nc(nc12)N(CC1CNC1)CCCCCOc1ccccc1CN3 | 20 | 10 | 35
CC(C)c1cnn2c3nc(nc12)N(CC1CNC1)CCCCCOc1cc(S(C)(=O)=O)ccc1CN3 | 12.8 | 15.8 | 54.7
